Values of other authors, collected in patent US20240142437A1, “METHODS TO PREVENT TERATOGENICITY OF IMID LIKE MOLECULES AND IMID BASED DEGRADERS/PROTACS” (DANA-FARBER CANCER INSTITUTE, INC., priority 2017, published 2024).

Settings: typical dose of 200-400 mg, 25 mg, or 2 mg for thalidomide, lenalidomide, or pomalidomide; read-out: maximum plasma concentration (Cmax); cited from earlier work

Nc1cccc2c1CN(C1CCC(=O)NC1=O)C2=O (stereo not shown) [lenalidomide]
Cmax: ~2500 nM
